Source: EP1495132B1, “SYSTEMIC MARKER FOR MONITORING ANTI-INFLAMMATORY AND ANTIOXIDANT ACTIONS OF THERAPEUTIC AGENTS” (priority 2002, dated 2003)

Test system: MPO and multiple distinct oxidation products formed by MPO
Conditions: 16 weeks of refocoxib 25 mg PO QD, rheumatoid arthritis, n=10

CS(=O)(=O)c1ccc(C2=C(c3ccccc3)C(=O)OC2)cc1 [refocoxib]
clinical outcome: clinical improvement in each subject | Nitrotyrosine (plasma protein-bound): 11.2 µmol/mol | 9-H(P)ETE (plasma): 0.20 mmol/mol | Chlorotyrosine (plasma): 15.8 µmol/mol | Dityrosine (plasma): 35.4 µmol/mol | F2Isoprostane (plasma): 0.76 mmol/mol | MPO (plasma): 10.8 ng/mL
